Source: patent publication US20060079453A1, “Hla binding peptides and their uses” (priority 2002, published 2006)

Legend:
HLA-A*2301 = HLA-A*2301 (Homo sapiens, UniProt P04439, D101N/D140Y/D185E/E176V/E190D/F33S/G103R/G107R/H175R/I119L/I121M/I306V/K168Q/K335N/L105A/L300P/N151K/N90K/P307H/Q86E/Q94H/R106L/R138H/R89G/T104I/T345S/V100E/W191G/Y123F); experiment: biochemical; format: binding; conditions: read-out: A*2301 binding affinity (IC50)
HLA-A*2902 = HLA-A*2902 (Homo sapiens, UniProt P04439, A270S/D101N/D185E/E176V/E277Q/E87Q/F33T/G231S/H175R/I121M/I218V/I322F/K168Q/L300P/L318F/M331R/P208A/P217A/Q86L/T323A/T345S/V100A/V358M); experiment: MHC molecular binding / Capture assay, IC50: A*2902
HLA-A*3002 = HLA-A*3002 (Homo sapiens, UniProt P04439, D101N/D140H/D185E/E176R/F33S/G80R/H175R/K168Q/Q94H/R138E/R41S/V100E); format: binding
HLA-DR DRB1*0901 (DR9) = HLA-DR DRB1*0901 (DR9) (Homo sapiens, UniProt P01903+P01911, A100R/A103E/D57H/D86V/F55Y/F60I/F76Y/I96F/K127E/L162R/M171V/P40D/Q125H/Q99R/R33Q/R42F/S133A/S66N/T210M/V115G/W38K/Y107V/Y59G/Y89S); experiment: biochemical; format: binding; conditions: read-out: DRB1 *0901
HLA-DR DRB1*0405 (DR4) = HLA-DR DRB1*0405 (DR4) (Homo sapiens, UniProt P01903+P01911, A100R/A169T/D86S/F76Y/I96L/K127E/L162R/M171V/N62H/P40V/Q125Y/R42H/S133A/S149N/S66Y/V115G/V209L/W38E); experiment: biochemical; format: binding; conditions: read-out: DRB1 *0405
HLA-DR DRB1*0701 (DR7) = HLA-DR DRB1*0701 (DR7) (Homo sapiens, UniProt P01903+P01911, A100R/A102G/A103Q/D57E/D86V/E43K/F76Y/K127E/L162R/M171V/P40G/Q125H/Q99D/R33Q/R42Y/R54Q/S133A/S66F/T210M/V115G/Y107V/Y59L/Y89S); experiment: biochemical; format: binding; conditions: read-out: DRB1 *0701
HLA-DR DRB1*0401 (DR4) = HLA-DR DRB1*0401 (DR4) (Homo sapiens, UniProt P01903+P01911, A100K/A169T/F76Y/I96L/K127E/L162R/M171V/N62H/P40V/Q125Y/R42H/S133A/S149N/S66Y/V115G/V209L/W38E); experiment: biochemical; format: binding; conditions: read-out: DRB1 *0401
[1] = read-out: A*2902 binding affinity (IC50)
[2] = read-out: Binding affinity to A*2902 (expressed as an IC50)
[3] = read-out: A*3002 binding affinity (IC50)

KEYSKISEF showed an IC50 (HLA-A*2301) of 138 nM, an IC50 (HLA-A*2902; [1]) of 73300 nM and an IC50 (HLA-A*2902; [2]) of 73300 nM.
Sequence KVSDETWNY has an IC50 (HLA-A*3002; [3]) of 1.9 nM, an IC50 (HLA-A*3002; read-out: Binding affinity to A*3002 (expressed as an IC50)) of 1.9 nM and an IC50 (HLA-A*2301) of over 12000 nM. For the same sequence, the IC50 (HLA-A*2902; [1]) was 230 nM and the IC50 (HLA-A*2902; [2]) was 230 nM.
With LSHFLKEKGGLEGL the IC50 (HLA-DR DRB1*0901 (DR9)) was 23200 nM, the IC50 (HLA-DR DRB1*0405 (DR4)) was 2110 nM and the IC50 (HLA-DR DRB1*0701 (DR7)) was 13700 nM. The IC50 (HLA-DR DRB1*0401 (DR4)) was 2440 nM.
LVNSSQPWEPLQLNV showed an IC50 (HLA-DR DRB1*0901 (DR9)) of over 78900 nM, an IC50 (HLA-DR DRB1*0405 (DR4)) of 19700 nM and an IC50 (HLA-DR DRB1*0401 (DR4)) of over 21500 nM.
NYTPGPGIRF gave an IC50 (HLA-A*3002; [3]) of over 9650 nM, an IC50 (HLA-A*2301) of 37 nM and an IC50 (HLA-A*2902; [1]) of 8330 nM.
RFHNIAGITF was tested, and the IC50 (HLA-A*3002; [3]) was 1.4 nM, the IC50 (HLA-A*2301) was 17 nM and the IC50 (HLA-A*2902; [1]) was 635 nM.
Work on SFFMNKFYI yielded an IC50 (HLA-A*3002; [3]) of 1020 nM, an IC50 (HLA-A*2301) of 11 nM and an IC50 (HLA-A*2902; [1]) of 200 nM.
In the case of SFLQNPQTSLCCFRK, the IC50 (HLA-DR DRB1*0405 (DR4)) is reported as 1230 nM.
With VFLTFFDLF the IC50 (HLA-A*3002; [3]) was 13600 nM, the IC50 (HLA-A*2301) was 12 nM and the IC50 (HLA-A*2902; [1]) was 1510 nM.
Sequence VYGETLEKE has an IC50 (HLA-A*3002; [3]) of 20000 nM, an IC50 (HLA-A*2301) of 14 nM and an IC50 (HLA-A*2902; [1]) of 91900 nM.
YYIDFAFRDF gave an IC50 (HLA-A*3002; [3]) of 8490 nM, an IC50 (HLA-A*2301) of 19 nM and an IC50 (HLA-A*2902; [1]) of 47400 nM.

Read-outs that look alike come from different tables or passages of the source.
